Assay results as given in US7910621B2, “Small molecule antagonists of XIAP family proteins” (The Regents of the University of Michigan, priority 2004, dated 2011).

Protein sequences, listed by entry. Tags and fused reporters are not part of them. Residues count along the entry.
UniProt P98170, 241-356 limits assumed: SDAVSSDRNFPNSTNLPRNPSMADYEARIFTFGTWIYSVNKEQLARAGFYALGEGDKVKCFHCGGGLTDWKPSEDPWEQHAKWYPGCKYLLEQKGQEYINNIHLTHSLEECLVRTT

Target: XIAP BIR3 protein of human XIAP (residues 241-356) (Homo sapiens, UniProt P98170)
Experiment: Fluorescence polarization competitive binding assay (SM7F tracer)

SMILES: Cc1ccc(NC(=O)c2cccc(CCC3=C(O)C(=O)C=C(O)C3=O)c2)cc1 [CJ-305]
- times more potent than SMXI-56 (binding to XIAP): 5 times
- times more potent than the natural Smac AVPI peptide (binding to XIAP): approximately 2 times
- IC50 (read-out: IC50 value to XIAP in the competitive binding assay, new analogs of SMXI-56 (FIG. 15)): 1000 nM
